Source: patent US5154929A, “Percutaneous absorption type preparation and process for preparing the same” (Nitto Denko Corporation, priority 1988, dated 1992)

Test: Saturated solubility of the drug in the pressure-sensitive adhesive
Settings: adhesive of Example 1 (2-ethylhexyl acrylate 97 parts, acrylic acid 3 parts)

## O=[N+]([O-])O[C@H]1CO[C@H]2[C@@H]1OC[C@H]2O[N+](=O)[O-]
  saturated solubility in the pressure-sensitive adhesive: about 8 % by weight
